Reference: patent US12083102B2, “Method for treating inflammatory disorders” (DIMERIX BIOSCIENCE PTY LTD, priority 2011, dated 2024)

Sequences of proteins named here, by UniProt entry; tags and fusion partners are left off.
UniProt P41597, whole entry: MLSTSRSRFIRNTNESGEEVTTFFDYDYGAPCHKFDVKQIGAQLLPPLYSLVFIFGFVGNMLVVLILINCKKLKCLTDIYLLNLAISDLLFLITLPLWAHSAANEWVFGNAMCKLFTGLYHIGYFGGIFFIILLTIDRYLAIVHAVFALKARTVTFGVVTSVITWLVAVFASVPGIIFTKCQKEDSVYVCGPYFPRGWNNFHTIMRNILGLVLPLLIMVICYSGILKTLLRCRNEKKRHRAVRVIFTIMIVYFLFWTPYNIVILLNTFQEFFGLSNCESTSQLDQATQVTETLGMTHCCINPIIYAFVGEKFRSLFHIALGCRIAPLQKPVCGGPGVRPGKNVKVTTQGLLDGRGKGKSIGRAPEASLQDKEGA

Columns and labels:
[1] = biological target: T1, CCR2-Rluc8 (Homo sapiens, UniProt P41597); details: HEK293FT cells, no AT1R, FIG. 7 top; for MCP-1-induced BRET response, CCR2-Rluc8 and β-arrestin2-Venus: antagonist 10 μM, 100 nM MCP-1
[2] = biological target: T1, CCR2-Rluc8; assay type: cell-based; design: expressed in transfected cells; host or cells: HEK293FT; details: HEK293FT cells; antagonist 10 μM, 30 min pre-incubation; 100 nM MCP-1; FIG. 5 top
From the text: Data represent mean±SEM of three independent experiments performed in triplicate.
HEK293FT cells were transiently transfected with plasmids coding for β-arrestin2-Venus and the indicated receptors: CCR2-Rluc8 (top panel), AT1R-Rluc8 (middle panel) or AT1R-Rluc8 and the untagged CCR2 (bottom panel).

CCCCC1=NC2(CCCC2)C(=O)N1Cc1ccc(-c2ccccc2-c2nn[nH]n2)cc1 [Irbesartan, 2-butyl-3-({4-[2-(2H-1,2,3,4-tetrazol-5-yl)phenyl]phenyl}methyl)-1,3-diazaspiro[4.4]non-1-en-4-one]
MCP-1-induced BRET response, CCR2-Rluc8 and β-arrestin2-Venus [1]: neither Irbesartan nor EXP3174, substantially blocked | MCP-1-induced BRET signal between CCR2-Rluc8 and β-arrestin2-Venus [2]: not Irbesartan substantially reduced

Cc1ccc2c(c1)C1(CCN(CCc3nc(-c4ccccc4)oc3C)CC1)OC(=O)N2 [RS504393]
MCP-1-induced BRET response, CCR2-Rluc8 and β-arrestin2-Venus [1]: substantially blocked | MCP-1-induced BRET signal between CCR2-Rluc8 and β-arrestin2-Venus [2]: substantially reduced

AngII: Angiotensin II peptide (DRVYIHPF; Angiotensin-2; UniProt P01019 25-32, looked up)
agonist-induced BRET, CCR2-Rluc8 and β-arrestin2-Venus ([1]; 100 nM agonist): had no effect
